Target: T1, A2A receptor in rat striatum (Rattus norvegicus, UniProt P30543)
T1 construct: the A2A receptor in rat striatum; from tissue; host or cells: rat striatum
Assay: Radioligand binding, displacement of [3H]ZM241385 from rat striatal membranes;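 note: displacement assays run in the absence of GTP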
Conditions: [3H]ZM241385, rat striatal membranes, ligand 10^−5 M

Chains of the proteins cited; added tags and fusions are not shown. Lines headed by an entry give the natural chain unless they say otherwise; changes in a name come on top.
UniProt P30543, whole entry: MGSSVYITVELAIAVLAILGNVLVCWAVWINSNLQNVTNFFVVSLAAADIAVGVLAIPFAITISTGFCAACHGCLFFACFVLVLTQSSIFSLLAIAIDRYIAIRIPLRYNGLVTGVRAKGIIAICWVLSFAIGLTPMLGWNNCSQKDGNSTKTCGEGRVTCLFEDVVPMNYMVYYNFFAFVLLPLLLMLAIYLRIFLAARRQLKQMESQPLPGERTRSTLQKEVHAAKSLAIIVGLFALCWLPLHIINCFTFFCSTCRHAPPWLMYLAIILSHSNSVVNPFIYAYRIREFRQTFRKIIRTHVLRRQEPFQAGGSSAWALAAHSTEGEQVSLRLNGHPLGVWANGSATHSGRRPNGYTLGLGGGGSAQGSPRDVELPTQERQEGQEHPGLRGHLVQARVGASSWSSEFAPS

Compound: CNC(=O)[C@H]1O[C@@H](n2cnc3c(NCc4cccc(I)c4)ncnc32)[C@H](O)[C@@H]1O [IB MECA, reference compound]
- % displacement at 10^−5 M A2A: 39.4%
